This assay addresses T1, Protein AF-9 (Homo sapiens, UniProt P42568).
T1 sequence (P42568 whole entry): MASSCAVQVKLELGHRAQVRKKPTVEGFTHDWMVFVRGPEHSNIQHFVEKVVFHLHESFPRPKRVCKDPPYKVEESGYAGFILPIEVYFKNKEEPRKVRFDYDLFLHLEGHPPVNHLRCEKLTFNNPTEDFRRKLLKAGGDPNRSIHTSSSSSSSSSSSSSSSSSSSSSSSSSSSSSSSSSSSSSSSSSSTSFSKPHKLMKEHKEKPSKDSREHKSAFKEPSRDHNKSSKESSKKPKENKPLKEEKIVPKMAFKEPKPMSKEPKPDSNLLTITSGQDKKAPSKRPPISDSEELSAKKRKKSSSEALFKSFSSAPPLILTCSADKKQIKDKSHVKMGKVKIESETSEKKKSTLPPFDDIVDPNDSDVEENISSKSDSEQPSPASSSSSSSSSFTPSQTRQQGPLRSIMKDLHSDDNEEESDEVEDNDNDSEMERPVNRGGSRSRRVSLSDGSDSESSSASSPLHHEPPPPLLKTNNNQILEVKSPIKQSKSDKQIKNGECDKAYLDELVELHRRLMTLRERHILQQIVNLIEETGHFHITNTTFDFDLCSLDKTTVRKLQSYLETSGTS
In words: Inhibition of human His-AF9 YEATS domain and biotinylated H3K9ac peptide interaction by AlphaScreen assay. In short, it runs like this: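 His-tagged YEATS domains were expressed in E. coli Rosetta-2 (DE3) pLysS and purified on Ni-NTA. Partners were biotinylated peptide on streptavidin donor and Ni2+-chelate acceptor beads: AF9 30 nM with H3K9ac, GAS41 100 nM with H3K27ac, YEATS2 100 nM with H3K27cr. Peptides at 30 nM, buffer 50 mM HEPES pH 7.4, 100 mM NaCl, 0.1% BSA, 0.05% CHAPS. Thirteen-point 3-fold series from 54 μM to 0.1 nM, 4–6 replicates, signal normalised to no-compound control, four-parameter fit.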
On the technique in general: Alpha assays give light when donor and acceptor beads are brought close together.

Usually IC50 stands for the concentration at which inhibition is half-maximal. As for `O=C(NCc1ccc(CN2CCC2)cc1)c1ccc2nncn2c1`, the IC50 is 984 nM.

Source of the values: ChEMBL document CHEMBL4808215, “Discovery of Selective Small-Molecule Inhibitors for the ENL YEATS Domain” (J Med Chem, 2021).
